# Yeast mating assay 2: variants of the scFv Ab-91

The measurements come from Engelhart et al. 2022 (doi:10.1038/s41597-022-01779-4) through the FLAb antibody collection.

All variants were tested on one target, the spike HR2 peptide PDVDLGDISGINAS (SARS-CoV-2).

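In library AAYL51, one, two or three CDR residues were substituted; doubles and triples were drawn at random. AlphaSeq pools MATa yeast showing the antibodies with MATalpha yeast showing the peptide. After mating in shaken culture at 30 °C for 16 h, diploids were selected and their barcode pairs sequenced. Read counts were normalised to the haploid input and turned into Kd by a linear fit to BCL2-family pairs of known affinity, for each replicate. There are three technical replicates.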

Parent: Ab-91, a human scFv built as VL, a (GGGGS)3 linker, VH. Only the CDRs of the heavy chain vary.
VL: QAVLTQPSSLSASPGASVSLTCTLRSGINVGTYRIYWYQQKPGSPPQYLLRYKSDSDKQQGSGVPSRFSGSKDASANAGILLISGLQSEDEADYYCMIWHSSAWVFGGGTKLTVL
VH: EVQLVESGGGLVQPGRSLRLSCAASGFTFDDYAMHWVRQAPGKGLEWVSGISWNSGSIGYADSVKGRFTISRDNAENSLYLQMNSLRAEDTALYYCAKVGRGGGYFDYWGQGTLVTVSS

Variants are written as CDR1, CDR2 and CDR3 of the heavy chain (limits as in the source). Parent: GFTFDDYAMH, GISWNSGSIGYADSVK, VGRGGGYFDY. Values are log10 of the apparent Kd in nM; lower means stronger binding. A mean of the replicates is given; it leaves out those without a signal. A pair that was not seen in that replicate is written "nd"; this usually means weak binding, but a binder can also be missed. In this assay the parent's reference entry averaged 1.86; its copy inside this library read 0.88. Three control strains display no target. For library AAYL51, 21% of the pairings with them gave a signal, with a median of 4.54 and one signal in twenty below 3.26, so weak values seen in few replicates may be background. For each scFv, signals with the empty controls are counted beside the result, with their mean in brackets.

| CDR-H1 | CDR-H2 | CDR-H3 | replicates, log10 nM | mean, log10 nM | empty controls |
|---|---|---|---|---|---|
| GFTFDDYAMH | GISWNIGIIGYADSVK | VGRGGGYFDQ | nd nd nd | nd | 0 of 9 |
| GFTFDDYAMV | GISWNSMSIGYADSVK | VGRGGGYFWY | nd 4.11 nd | 4.11 | 1 of 9 (3.86) |
| GFQFDDRAMH | GISWNSGSIDYADSVK | VGRGGGYFDY | 3.09 4.12 nd | 3.61 | 1 of 9 (3.67) |
| GFCQDDYAMH | GISWNSGSIGYADSVK | VGRGGGYFDY | 4.42 nd nd | 4.42 | 4 of 9 (4.52) |
| GFTFDDYAMH | GISYNSGSIGYADRSK | VGRGGGYFDY | 2.48 2.81 2.37 | 2.55 | 0 of 9 |
| GFTFDDEAMH | GISWNSGAIGYADSVK | HGRGGGYFDY | nd nd nd | nd | 0 of 9 |
| GFTFDDYAMH | GISWNSGSIGYADSVK | VGRGGHMQDY | nd 6.32 nd | 6.32 | 3 of 9 (4.37) |
| GFTFDDYAMH | GISWNSGSIGYADLVK | VGRWGGYFDM | 2.12 2.09 1.77 | 1.99 | 4 of 9 (4.83) |
| GFTFDDYAEH | GISWNSGSIGNADSVK | VGRGGGYFFY | 3.76 3.70 4.01 | 3.82 | 3 of 9 (4.26) |
| GFTFDDYAMH | VISWNSSSIGYADSVK | VGRGGGYFDY | nd nd nd | nd | 0 of 9 |
| GFTFDDYAMH | GISWNIGSIGYADSVK | VGRGGGYCGY | 3.31 nd 3.25 | 3.28 | 0 of 9 |
| GFTFDDYAMH | GISWNSGSIGYYDSDK | VGKGGGYFDY | 4.27 nd 4.92 | 4.60 | 2 of 9 (3.82) |
| GFTFDDYAMH | GISWNSGDIGYYDSVK | VGRGGGNFDY | nd nd nd | nd | 0 of 9 |
| GFTFCDYAMH | GISWNSGSQGYADSVK | VIRGGGYFDY | nd nd nd | nd | 2 of 9 (4.90) |
| GFTFDDYAMH | GPSWNSGSIGYADSHK | VGRGGGYSDY | nd 3.50 4.59 | 4.05 | 0 of 9 |
| GFTFDDYAMH | GISWNSGMIGYADSVK | VGRGGGYFDY | 1.93 1.65 1.40 | 1.66 | 1 of 9 (4.76) |
| GFPFDDYAMH | GISWNSGSIGLADSVI | VGRGGGYFDY | 3.76 nd nd | 3.76 | 0 of 9 |
| GFTFDDYAMH | GISWNSGSIGYADSVK | VGRGNGWFDW | 5.92 4.84 5.16 | 5.31 | 5 of 9 (4.40) |
| GFTFDDYAMH | GISWNSGSIGYADSVK | VGRGGGWFAY | nd nd nd | nd | 1 of 9 (4.00) |
| PFTFDDYAMH | LISWNSGSVGYADSVK | VGRGGGYFDY | nd 5.91 4.67 | 5.29 | 1 of 9 (5.21) |
| GFTKDDYAMH | AISWNSGSIGYADSKK | VGRGGGYFDY | 6.05 nd nd | 6.05 | 5 of 9 (4.80) |
| GFTFDDYAMH | GISWKSGSIWYADSVN | VGRGGGYFDY | nd nd nd | nd | 0 of 9 |
| GFTFRDYAMH | GISWNSGSIGYAYSVK | VGRHGGYFDY | 5.15 nd 4.51 | 4.83 | 2 of 9 (5.01) |
| GFTFDDYAMH | GISWNSGSIGYADSKK | VGRGQGYFEY | nd nd nd | nd | 1 of 9 (3.34) |
| GFTFDDYAMH | GISMNSGSIGYLDSVK | VGRQGGYFDY | 3.78 4.44 3.90 | 4.04 | 0 of 9 |
| GFTLDDYAMH | GISWNSGSIGYADSVK | VGKGGGYFDY | nd nd nd | nd | 1 of 9 (4.10) |
| GFTFDDYAMH | GESWNSASIGYARSVK | VGRGGGYFDY | nd 3.91 4.71 | 4.31 | 2 of 9 (4.10) |
| GFFFQDYAMH | GISWNSGSIGYADSSK | VGRGGGYFDY | 3.59 3.34 5.25 | 4.06 | 2 of 9 (4.48) |
| GFTFDDYAMH | GISWNSGSIGGADSVK | HGRGGGYFDY | nd nd nd | nd | 0 of 9 |
| GFTFDIYAMH | GISWNLGQIGYADSVK | VGRGGGYFDY | 5.67 nd nd | 5.67 | 6 of 9 (4.27) |
| GFTYDDYAMH | GISWNSGSIDYADSVK | VGRFGGYFDY | nd nd nd | nd | 0 of 9 |
| PQTFDDYAMH | GISWNSGSIGYAYSVK | VGRGGGYFDY | nd 4.88 nd | 4.88 | 2 of 9 (4.37) |
| RFTFDDYAMH | GISWNSGSIGYADHMK | VGRGGGYFDY | nd 5.07 nd | 5.07 | 2 of 9 (4.15) |
| GFTFDDYAMH | GISWNSGSIPYADSVK | VMRHGGYFDY | 5.35 6.45 nd | 5.90 | 4 of 9 (4.35) |
| GFTFDDYAMH | GISWNSGSIGKCDSVK | VGRGGGYFDY | 5.18 nd nd | 5.18 | 2 of 9 (5.04) |
| GFTFDDYAMV | GISWNAGSIGYADSVK | VGRGGGLFDY | 5.52 4.63 nd | 5.08 | 4 of 9 (4.23) |
| GFTFDDYAMA | GISWNSKSIGYADSVK | VGMGGGYFDY | 6.36 nd 4.61 | 5.49 | 4 of 9 (4.66) |
| GFTFDDYAMH | GIAWNSGSIGYADSVE | FGRGGGYFDY | 0.39 0.46 -0.35 | 0.17 | 7 of 9 (5.48) |
| GFTFDAYAMH | GISWNSGSIGYADSVK | VLRGGGYFIY | 0.54 0.63 -0.38 | 0.26 | 1 of 9 (3.81) |
| GFTFDDYAMA | GISWNSGGIGYADSVK | VGRGGGYFDY | 4.81 5.17 nd | 4.99 | 4 of 9 (4.28) |
| DFTFDDYAMH | GILWNSGSIGYADSVK | VGRGGGYFDY | nd 4.75 nd | 4.75 | 2 of 9 (4.12) |
| GFTFDDYAMH | TISWNSGSIKYADSVK | VGRGGGYFDY | 3.08 nd nd | 3.08 | 1 of 9 (3.12) |
| GFTFDRYAMH | IISWNSGSIGYADSVK | VGRMGGYFDY | nd nd nd | nd | 1 of 9 (3.93) |
| GFTFDDYGMH | GISWNSGSIGYADSVK | VRRGGGYFDN | 2.65 2.29 2.15 | 2.36 | 2 of 9 (3.61) |
| QFTFDDYAMI | GISWNSGSIGYADSVK | VGRGGGYFDC | nd nd nd | nd | 2 of 9 (4.02) |
| GQTFDDYAMH | GISWNSGSIQYYDSVK | VGRGGGYFDY | nd nd nd | nd | 0 of 9 |
| GFTFDDYAMH | GISWNSGSIGYADSVL | VGRGGGYYDY | 3.40 3.14 2.85 | 3.13 | 3 of 9 (4.19) |
| GFTFDDYAMH | GIWWCSGSIGYADSVK | VGRQGGYFDY | nd nd nd | nd | 2 of 9 (3.89) |
| GFTFDDYAMH | GISWNSGSIGYADSVK | VGRGTDYFDY | nd nd nd | nd | 1 of 9 (3.91) |
| GFTFDDYAMH | GISWNSGRIMYADSVK | VGRGGGYFDP | nd nd nd | nd | 5 of 9 (3.30) |
| VFTFDDYAMH | GISWNSGSIGYAWSVK | VGRGHGYFDY | nd nd nd | nd | 1 of 9 (4.90) |
| GFTFDDYAMH | GISWMSGSIPYADSVK | VGRIGGYFDY | nd nd nd | nd | 0 of 9 |

The 6 strongest on average among those seen in every replicate, once more:

CDR-H1	CDR-H2	CDR-H3	replicates, log10 nM	mean, log10 nM	empty controls
GFTFDDYAMH	GIAWNSGSIGYADSVE	FGRGGGYFDY	0.39 0.46 -0.35	0.17	7 of 9 (5.48)
GFTFDAYAMH	GISWNSGSIGYADSVK	VLRGGGYFIY	0.54 0.63 -0.38	0.26	1 of 9 (3.81)
GFTFDDYAMH	GISWNSGMIGYADSVK	VGRGGGYFDY	1.93 1.65 1.40	1.66	1 of 9 (4.76)
GFTFDDYAMH	GISWNSGSIGYADLVK	VGRWGGYFDM	2.12 2.09 1.77	1.99	4 of 9 (4.83)
GFTFDDYGMH	GISWNSGSIGYADSVK	VRRGGGYFDN	2.65 2.29 2.15	2.36	2 of 9 (3.61)
GFTFDDYAMH	GISYNSGSIGYADRSK	VGRGGGYFDY	2.48 2.81 2.37	2.55	0 of 9